# Data: PMC9502993 (Pharmaceuticals, 2022)
# Tested on: HepG2 cells
# Assay: In Vitro Micronuclei Plus assay (flow cytometry)
# Conditions: positive and negative control
smiles,measurement,value
COc1cc2c(c(OC)c1OC)-c1ccc(OC)c(=O)cc1[C@@H](NC(C)=O)CC2 [colchicine],genotoxicity by the criteria of OECD guideline 487,fulfilled all criteria
